scFv variants of Ab-14 (heavy chain) against a SARS-CoV-2 spike peptide

Target peptide (SARS-CoV-2 spike, HR2 region): PDVDLGDISGINAS

The variants keep the light chain, the linker and the frameworks of Ab-14 (scFv order VH, a 15-residue (Gly4Ser)3 linker, VL).
VH: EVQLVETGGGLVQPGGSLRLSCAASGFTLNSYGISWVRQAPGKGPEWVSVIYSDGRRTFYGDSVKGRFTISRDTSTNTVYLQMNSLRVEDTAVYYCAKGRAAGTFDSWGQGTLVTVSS
VL: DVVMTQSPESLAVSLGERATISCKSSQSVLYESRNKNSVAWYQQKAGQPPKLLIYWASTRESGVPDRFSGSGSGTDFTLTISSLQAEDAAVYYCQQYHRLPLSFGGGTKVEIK

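The starting antibody came from a phage panning campaign against this peptide. These sequences belong to a second round, designed from the earlier measurements on random variants of the parent. Group labels follow the data file (Rand: our label for a block that the file lists under HC and that is probably the random mutants of the ten best first-round binders; En: ensemble of fine-tuned language models; HC: hill climbing; Gen: genetic algorithm; Gibbs: Gibbs sampling; a sequence that several methods proposed may carry one label only). The assay is AlphaSeq: two haploid yeast populations carry antibody and antigen on their surface. Binding brings cells together so that they mate, and sequencing counts the barcode pairs among the diploids. The ratio of observed to expected reads was calibrated, replicate by replicate, on BCL2-family standards whose Kd was known from biolayer interferometry. The assay was run in six technical replicates.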

Each variant is given by its three heavy chain CDRs, as the data file delimits them; those of the parent are GFTLNSYGIS, VIYSDGRRTFYGDSVK, GRAAGTFDS. This list holds designs with more than six substitutions. Each Kd is an estimate from the mating assay, the geometric mean of the replicates in which the pair was seen; lower is stronger. A pair that was not seen in any replicate is written "nd"; this usually means weak binding, but a binder can also be missed. Empty control strains, which show no peptide, gave a signal in 1% of pairings with all heavy chain designs; the median was 120 nM and 95% of these signals were weaker than 7.0 nM. No background was subtracted. A sequence measured in both rounds can read differently, since the two assays cover different ranges. The parent sequence was in this pool as ten entries: three were never detected, three once, and four in most replicates, with averages from 2.2 nM to 240 nM. The authors averaged sequences with at least three values out of six and counted those with two or fewer as poor binders.

Variant GFDLNEYGIS | VIYADGRRKAYADSVK | GNNAGTFDV [En_Gen] gave 1.5 nM (6 of 6 replicates). With GFDLNEYGIS | VIYADGMRTFYSDSVK | GQLAGTFDV [En_HC] the result was 450 pM (6 of 6 replicates). With GFDLDEYGIS | VIYADGMRTAYADKVK | GTNAGTFDV [En_Gen] the result was 980 pM (6 of 6 replicates). Variant GFNIDEYGIS | VIYADGKRSMYADKVK | GVDADTMMD [En_Gibbs] showed nd (0 of 6 replicates). Variant GFNLDEYGVS | VIYADGKRTVYHDSVK | GSFLGVKLN [En_Gibbs] showed nd (0 of 6 replicates). With GFDLDEYGIS | VIYADGMRTAYADDVK | GENAGTFDT [En_Gen] the result was 280 pM (6 of 6 replicates).

Variant GYDIQDYGIS | VIYADGQRAAYADEVK | GNIGGIFST [En_Gibbs] gave 280 nM (4 of 6 replicates). With GFDLNDYGIS | VIYADGRRTAYIDSVK | GEVAGTFDD [En_HC] the result was 380 pM (6 of 6 replicates). Variant GFDLNEYGIS | VIYADGKRTAYADSVK | GHVAGTFDV [En_Gen] showed 160 pM (6 of 6 replicates). With GFDLNEYGIS | VIYADGRRKAYADDVK | GENAGTFDV [En_Gen] the result was 750 pM (6 of 6 replicates). For GYDIEEYGIS | VIYADGKRNAFANSFK | GKWAGTFDD [En_Gibbs], the assay gave 53 nM (3 of 6 replicates). With GFSLEEFGIS | VIYADGSRRAYAQDVK | GGTAGIFVV [En_Gibbs] the result was nd (0 of 6 replicates).

For GFDINEYGIS | VIFADGMRTAYLNSVK | GQMAGFFIM [En_Gibbs], the assay gave nd (0 of 6 replicates). For GFDLNEYGIS | VIYADGQRTFYADSVK | GENAGTFDT [En_Gen], the assay gave 550 pM (6 of 6 replicates). For GFDLQEYGVS | VIYADGRRASYASKFK | GNHSGYLDK [En_Gibbs], the assay gave nd (0 of 6 replicates). Variant GFDLNEYGIS | VIYADGRRTFYADSVK | GKIAGTFNT [En_HC] gave 360 pM (6 of 6 replicates). Variant GFDLNEYGIS | VIYADGKRTAYADSVK | GNVAGTFVQ [En_Gen] gave 670 pM (6 of 6 replicates). With GFTLNECGIS | VIYLDNRRTFYTDSVK | GRFAGTFKS [Rand] the result was nd (0 of 6 replicates).

Variant GFDLESYGIS | VIYADGRRTFYSDSVK | GHNAGTFDI [En_HC] gave 220 pM (6 of 6 replicates). Variant GFDLDEYGIS | VIYADGMRTAYADSVK | GSNAGTFDL [En_Gen] gave 420 pM (6 of 6 replicates). Variant GFDLNEYGIS | VIYADGKRAAYADSVK | GNVAGTFDV [En_Gen] gave 650 pM (6 of 6 replicates). Variant GFDLDEYGIS | VIYADGRRTAYSDDVK | GENAGTFDV [En_Gen] showed 560 pM (6 of 6 replicates). Variant GFELQEYGIS | VIYADGRKQSYRDKFK | GGIAGNFDM [En_Gibbs] showed nd (0 of 6 replicates). For GFDLNEYGIS | VIYADGRRTFYTDSVK | GQFAGTFDV [En_HC], the assay gave 430 pM (6 of 6 replicates).

Variant GFDINEYGIS | VIYADGRRKAYSDAVK | GIDVYGKTV [En_Gibbs] gave nd (0 of 6 replicates). Variant GFDLQEYGIS | VIYSDGVREAYTNSFK | GQIAGTIDL [En_Gibbs] showed nd (0 of 6 replicates). With GFDIEEYGIS | VIYADGVRAMYASNFK | GKIAGTGLL [En_Gibbs] the result was nd (0 of 6 replicates). For GFDLDEYGIS | VIYADGMRTAYVDNVK | GEVAGTFDV [En_Gen], the assay gave 400 pM (5 of 6 replicates). Variant GFDFNEYGIS | VIYADGKRTAYADNVK | GGKDAATDI [En_Gibbs] gave 3.8 nM (5 of 6 replicates). With GFDLNEYGIS | VIYADGMRTFYADSVK | GNTAGTFDM [En_Gen] the result was 250 pM (6 of 6 replicates).

Variant GFDLNDYGIS | VIYADGRRTAYIDSVK | GEAAGTFDL [En_HC] gave 480 pM (6 of 6 replicates). For GFSLDEYGIS | VIYADGRRTFYADSVK | GENAGTFDM [En_HC], the assay gave 130 pM (6 of 6 replicates). For GFDLNEYGIS | VIYADGRRTFYTDSVK | GNEAGTFLV [En_HC], the assay gave 360 pM (6 of 6 replicates). Variant GFNLNEYGIS | VIYADGQRLSYDDKVK | GQIGGTFND [En_Gibbs] gave 1.6 nM (6 of 6 replicates). For GFDIDEMGIS | VIYADGKRTAYSNQVK | GNIYYDGMS [En_Gibbs], the assay gave nd (0 of 6 replicates). Variant GFDLNEYGIS | VIYADGMRTAYTDNVK | GQVAGTFDV [En_Gen] showed 280 pM (6 of 6 replicates).

For GFNLDEYGIS | VIYADGMRVVYTNDVK | GLYTVLKGK [En_Gibbs], the assay gave nd (0 of 6 replicates). Variant GFDLNEYGIS | VIYADGRRTFYVDSVK | GSNAGTFDV [En_HC] gave 150 pM (6 of 6 replicates). Variant GFDLDEYGIS | VIYADGMRTAYSDSVK | GENAGTFDT [En_Gen] showed 320 pM (6 of 6 replicates). Variant GFQLDEFGIS | VIYADGKRSSYVDDVK | GEVTGGFKV [En_Gibbs] showed nd (0 of 6 replicates). With GFDLNEYGIS | VIYADGMRKAYADSVK | GEVAGTFDL [En_Gen] the result was 310 pM (6 of 6 replicates). Variant GFDLDEYGIS | VIYADGRRTAYADSVK | GANAGTFDV [En_Gen] showed 730 pM (6 of 6 replicates).

For GFDLEDYGIS | VIYADGMRTAYADSVK | GETAGTFDV [En_Gen], the assay gave 770 pM (6 of 6 replicates). Variant GFNLDEYGIS | VIYADGMRTFVSNAVK | GHNADFLFV [En_Gibbs] showed 110 pM (6 of 6 replicates). Variant GFDLNEYGIS | VIYADGMRTAYADTVK | GTNAGTFDV [En_Gen] gave 340 pM (6 of 6 replicates). Variant GFNLKEYGIS | VIYADGVRAQYAHSVK | GTYSGKFGM [En_Gibbs] gave nd (0 of 6 replicates). Variant GFDLNEYGIS | VIYADGKRTFYADSVK | GNVAGTFIQ [En_HC] gave 530 pM (6 of 6 replicates). Variant GFDLDEYGIS | VIYADGKRTFYADSVK | GTNAGTFDV [En_Gen] gave 1.0 nM (3 of 6 replicates).

Variant GFDLNEYGIS | VIYADGMRTAYANSVK | GEVAGTFDM [En_Gen] showed 120 pM (6 of 6 replicates). With GFDLDEYGIS | VIYADGKRTYYADSVK | GNVAGTFDQ [En_Gen] the result was 190 pM (6 of 6 replicates). Variant GFDLNEYGIS | VIYADGRRTFYADSVK | GSQAGTFNM [En_HC] showed 150 pM (6 of 6 replicates).

Excerpt, the first 8 entries:

CDR-H1,CDR-H2,CDR-H3,group,Kd,replicates with signal
GFDLNEYGIS,VIYADGRRKAYADSVK,GNNAGTFDV,En_Gen,1.5 nM,6 of 6
GFDLNEYGIS,VIYADGMRTFYSDSVK,GQLAGTFDV,En_HC,450 pM,6 of 6
GFDLDEYGIS,VIYADGMRTAYADKVK,GTNAGTFDV,En_Gen,980 pM,6 of 6
GFNIDEYGIS,VIYADGKRSMYADKVK,GVDADTMMD,En_Gibbs,nd,0 of 6
GFNLDEYGVS,VIYADGKRTVYHDSVK,GSFLGVKLN,En_Gibbs,nd,0 of 6
GFDLDEYGIS,VIYADGMRTAYADDVK,GENAGTFDT,En_Gen,280 pM,6 of 6
GYDIQDYGIS,VIYADGQRAAYADEVK,GNIGGIFST,En_Gibbs,280 nM,4 of 6
GFDLNDYGIS,VIYADGRRTAYIDSVK,GEVAGTFDD,En_HC,380 pM,6 of 6

Source: Li et al. 2023 (doi:10.1038/s41467-023-39022-2), MIT Lincoln Laboratory and A-Alpha Bio; data file from the FLAb repository.